Assay outcomes from PubChem BioAssay.
An excerpt weighted towards active compounds, which were near 13% of everything screened.
Sfp PPTase inh: Sfp phosphopantetheinyl transferase inhibition; Q9F4F7; Biochemical Sfp PPTase activity, qHTS; Potency, µM, hits mostly inhibitors; hit rate 3.5% among 310,000;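 note: the enzyme is Sfp with the accession as filed and its product quenches rhodamine fluorescence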
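Buffer: 50 mM Hepes-Na pH 7.6, 10 mM MgCl2, 0.01% Nonidet P-40, 0.01% BSA. Enzyme 15 nM, pre-exposed to compound 15 min; substrates then added and fluorescence change tracked over 30 min.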
ALDH1A1 block: ALDH1A1 (human) enzyme inhibition; hit rate 7.3% among 220,000; Potency, µM (top dose mostly 75.3 µM), usual class: inhibitors; Purified ALDH1A1, NADH fluorescence, propionaldehyde substrate; active = well fitted inhibition curve with a large enough effect, not every such curve was filed as active; inconclusive = small, poorly fitted or top-dose-only effect, or another doubt; inactive = no such curve, though single readings can be large or run the other way
miR-21 reporter: miR-21 reporter, rising signal. 340,000 tested, under 10 active. Potency, µM (highest dose often 38.3 µM). HeLa miR-21 FLuc reporter, luciferase, 48 h. AID 2288; active = well fitted rising curve with a large enough effect; inconclusive = small, poorly fitted or top-dose-only effect; inactive = no such curve, though single readings can be large or run the other way;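 further: miR-21 action dims this reporter so a rising signal means less miR-21 action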
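Luminescence from a firefly luciferase reporter carrying a miR-21 binding site downstream, stably expressed under a CMV promoter in HeLa cells that make miR-21 endogenously, reports miRNA modulation after 48 h compound exposure up to approximately 40uM final.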
Lamin A splicing: changes lamin A minigene splicing in HeLa cells; HeLa LMNA splicing GFP/RFP minigene ratio, 48 h; Potency, µM (highest dose often 46.1 µM), actives largely listed as inhibitors; hit rate 0.01% among 200,000; AID 1487; active = well fitted inhibition curve with a large enough effect in the signal ratio, with a control signal flat, not every such curve was filed as active; inconclusive = small, poorly fitted or top-dose-only effect, or effect the other way, or a change in a side signal; the % refers to the signal ratio
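S3 HeLa cells stably expressing lamin A-EGFP splicing minigene plus DsRed2, 600 cells/well, 48 h compound exposure at 37C. Laser-scanning cytometry; analysed as GFP (500-530 nm)/RFP (575-640 nm) total intensity ratio; 0.5% DMSO vehicle.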
G9a inh: inhibitors of human histone lysine methyltransferase G9a; Q96KQ7; G9a H3K9 monomethylation, AlphaScreen, 2 h; Potency, µM (doses to about 102 µM), usual class: inhibitors; hit rate 8.8% among 350,000; note: nearly all actives have a fitted effect of over 75% in size
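Enzyme 20 nM + cpd, 15 min RT; add b-H3K9 pep 500 nM / SAM 20 uM; 2 h RT; anti-H3K9me1 Ab 0.5 ug/mL + SA donor / anti-rabbit acceptor beads 20 ug/mL each, 10 min; AlphaScreen read.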
KDM4E inh: blocks human JMJD2E demethylase activity | JMJD2E catalytic domain, FDH-coupled NADH fluorescence (FDH is formaldehyde dehydrogenase) | Potency, µM (top dose mostly 57.1 µM), actives largely listed as inhibitors | hit rate 1.6% among 230,000 | AID 2147; active = well fitted inhibition curve with a large enough effect, not every such curve was filed as active; inconclusive = small, poorly fitted or top-dose-only effect, or another doubt; inactive = no such curve, though single readings can be large or run the other way; note: nearly all actives have a fitted effect of over 50% in size
Hits are given with their value; [ ] = remark or other dose. Unless noted, calls come from the whole dose curve; as a rule, active = well fitted curve in the direction sought with a large enough effect; inconclusive = small, poorly fitted or top-dose-only effect, or another doubt; inactive = no such curve, though single readings can be large; an effect the other way counts as inactive or inconclusive.

How did Cc1cccc(N=C2NC(=O)/C(=C/c3cccn3C)S2)c1C do in these assays?
Sfp PPTase inh: 79µM; miR-21 reporter: inactive; G9a inh: inconclusive; KDM4E inh: inactive

Results for Cc1ccc(N=C2NC(=O)/C(=C/c3cccn3C)S2)cc1 ?
Sfp PPTase inh: inactive; miR-21 reporter: inactive; G9a inh: inconclusive; KDM4E inh: inactive

Results for Cc1ccccc1N=C1NC(=O)/C(=C/c2cccn2-c2cccc(C(=O)O)c2)S1 ?
Sfp PPTase inh: inactive; ALDH1A1 block: inactive; miR-21 reporter: inactive; Lamin A splicing: inactive[1.84 µM]; G9a inh: 28µM; KDM4E inh: inactive

Results for Cc1ccc(N=C2NC(=O)/C(=C/c3cccn3C)S2)cc1C ?
Sfp PPTase inh: inactive; ALDH1A1 block: inactive; miR-21 reporter: inactive; G9a inh: inactive; KDM4E inh: inactive

Results for CCc1sc(N)nc1-c1ccccc1 ?
Sfp PPTase inh: 79µM; ALDH1A1 block: inconclusive; miR-21 reporter: inactive; Lamin A splicing: inactive; G9a inh: inconclusive; KDM4E inh: inactive

Results for Nc1nc(-c2ccc(Oc3ccccc3)cc2)c(CC(=O)O)s1 ?
Sfp PPTase inh: inactive; miR-21 reporter: inactive; G9a inh: 32µM

How did Nc1nc(-c2cccs2)c(CC(=O)O)s1 do in these assays?
Sfp PPTase inh: inactive; ALDH1A1 block: inconclusive; miR-21 reporter: inactive; G9a inh: 40µM; KDM4E inh: inactive

What do the screens show for `O=C(NCc1ccco1)c1cc(-c2cccs2)on1`?
Sfp PPTase inh: inconclusive; ALDH1A1 block: 22µM; miR-21 reporter: inactive; Lamin A splicing: inactive; G9a inh: inactive; KDM4E inh: inconclusive

What do the screens show for `Cc1cc(-c2ccccc2)nc2cc(C(=O)NCc3ccco3)nn12`?
Sfp PPTase inh: inconclusive; ALDH1A1 block: inconclusive; miR-21 reporter: inactive; G9a inh: 50µM; KDM4E inh: inconclusive

Results for O=C(NCc1ccco1)c1cnccn1 ?
Sfp PPTase inh: 40µM; ALDH1A1 block: 28µM; miR-21 reporter: inactive; Lamin A splicing: inactive; G9a inh: inactive; KDM4E inh: inactive

Results for O=C(NCc1ccco1)c1ccc2nccnc2c1 ?
Sfp PPTase inh: inactive; miR-21 reporter: inactive; G9a inh: inactive

What do the screens show for `O=C(NCc1ccc(F)cc1)c1cc(-c2cccs2)on1`?
Sfp PPTase inh: 45µM; ALDH1A1 block: inconclusive; miR-21 reporter: inactive; Lamin A splicing: inconclusive; G9a inh: inactive; KDM4E inh: inactive

Results for COc1ccc(-c2cc(C(F)(F)F)n3nc(C(=O)NCc4ccco4)cc3n2)cc1 ?
Sfp PPTase inh: inactive; ALDH1A1 block: inconclusive; miR-21 reporter: inactive; Lamin A splicing: inactive; G9a inh: inactive; KDM4E inh: inconclusive

Results for CCOc1ccc(NC(=O)C(=O)NCCc2csc(-c3ccc(F)cc3)n2)cc1 ?
miR-21 reporter: inactive; Lamin A splicing: inactive; G9a inh: inactive

How did CCCCC/C=C\C/C=C\CCCCCCCC(=O)NC(C)C(=O)O (stereo not drawn) do in these assays?
Sfp PPTase inh: inactive; ALDH1A1 block: inactive; KDM4E inh: inactive

What do the screens show for `Cc1ccc2nc(-c3cccs3)c(Nc3ccc4c(c3)OCCO4)n2c1`?
miR-21 reporter: inactive; G9a inh: inconclusive

How did O=c1c2ccccc2c(C=NC2CCN(Cc3ccccc3)CC2)c(O)n1Cc1ccc2c(c1)OCO2 do in these assays?
Sfp PPTase inh: inactive; ALDH1A1 block: inactive; miR-21 reporter: inactive; Lamin A splicing: inactive; G9a inh: 8.9µM; KDM4E inh: inactive

Results for Cn1c(=O)c(C(=O)CN2CCN(Cc3ccc4c(c3)OCO4)CC2)c(N)n(Cc2ccccc2)c1=O ?
Sfp PPTase inh: inactive; ALDH1A1 block: inactive; miR-21 reporter: inactive; G9a inh: inactive; KDM4E inh: inactive

Results for CN(C)CCCN=Cc1c(O)n(Cc2ccc3c(c2)OCO3)c(=O)c2ccccc12 ?
Sfp PPTase inh: inactive; ALDH1A1 block: inactive; miR-21 reporter: inactive; Lamin A splicing: inactive; G9a inh: inconclusive; KDM4E inh: inconclusive

What do the screens show for `CN(C)CCN=Cc1c(O)n(Cc2ccc3c(c2)OCO3)c(=O)c2ccccc12`?
Sfp PPTase inh: inactive; ALDH1A1 block: inactive; miR-21 reporter: inactive; G9a inh: 50µM; KDM4E inh: inconclusive

What do the screens show for `Nc1c(-c2nc(-c3ccncc3)no2)nnn1CC(=O)Nc1ccccc1`?
miR-21 reporter: inactive; G9a inh: inactive

Results for O=C(O)COc1nn(Cc2ccccc2)c2ccccc12 ?
Sfp PPTase inh: inactive; G9a inh: inactive[12.7 µM]

Results for O=C(NC(=S)Nc1ccc(S(=O)(=O)Nc2nccs2)cc1)c1ccccc1F ?
Sfp PPTase inh: inactive; ALDH1A1 block: 2µM; miR-21 reporter: inactive; G9a inh: 10µM; KDM4E inh: inactive

What do the screens show for `COc1nccnc1NS(=O)(=O)c1ccc(NC(=S)NC(=O)c2ccc(F)c(F)c2)cc1`?
Sfp PPTase inh: inactive; ALDH1A1 block: inconclusive; miR-21 reporter: inactive; Lamin A splicing: inconclusive; G9a inh: 50µM; KDM4E inh: inactive

What do the screens show for `O=C(NC(=S)Nc1ccc(S(=O)(=O)Nc2nccs2)cc1)c1ccccc1`?
Sfp PPTase inh: inactive; ALDH1A1 block: 32µM; miR-21 reporter: inactive; Lamin A splicing: inactive; G9a inh: inconclusive; KDM4E inh: inactive

Results for O=C(NC(=S)Nc1ccc(S(=O)(=O)Nc2nccs2)cc1)c1ccc(F)c(F)c1 ?
Sfp PPTase inh: inactive; ALDH1A1 block: 25µM; miR-21 reporter: inactive; Lamin A splicing: inactive; G9a inh: inconclusive; KDM4E inh: inactive

Results for COc1cccc(OC)c1C(=O)NC(=S)Nc1ccc(S(=O)(=O)Nc2nccs2)cc1 ?
Sfp PPTase inh: inactive; ALDH1A1 block: inactive; miR-21 reporter: inactive; Lamin A splicing: inconclusive; G9a inh: inconclusive; KDM4E inh: inactive

How did O=C(NC(=S)Nc1ccc(S(=O)(=O)Nc2nccs2)cc1)c1ccc(Br)o1 do in these assays?
Sfp PPTase inh: inactive; ALDH1A1 block: 32µM; miR-21 reporter: inactive; G9a inh: inconclusive; KDM4E inh: inactive

How did O=C(NC(=S)Nc1ccc(S(=O)(=O)Nc2nccs2)cc1)c1cccnc1 do in these assays?
Sfp PPTase inh: inactive; ALDH1A1 block: inconclusive; miR-21 reporter: inactive; G9a inh: 45µM; KDM4E inh: inactive

Results for CC(C)C(=O)NC(=S)Nc1ccc(S(=O)(=O)Nc2nccs2)cc1 ?
Sfp PPTase inh: inactive; ALDH1A1 block: inactive; miR-21 reporter: inactive; Lamin A splicing: inactive; G9a inh: inactive; KDM4E inh: inactive

Results for NC(=O)C1CCN(C(=O)COCc2cc(-c3ccc4c(c3)OCO4)on2)CC1 ?
Sfp PPTase inh: inactive; miR-21 reporter: inactive; G9a inh: inactive

Results for COC(=O)c1ccc(Nc2ncnc3c2cnn3-c2ccccc2)cc1 ?
miR-21 reporter: inactive; Lamin A splicing: inactive; G9a inh: inactive

What do the screens show for `CCCn1cc(SCC(=O)NCc2ccco2)c2ccccc21`?
Sfp PPTase inh: inactive; ALDH1A1 block: inconclusive; miR-21 reporter: inactive; Lamin A splicing: inactive; G9a inh: 40µM; KDM4E inh: inactive
